Laboratory results reported in patent publication US20250295610A1, “NEUROPROTECTIVE AGENTS FOR USE IN THE TREATMENT OF OPTIC NEUROPATHIES” (The Board of Trustees of the Leland Stanford Junior …, priority 2021, published 2025).

Tested on: XBP-1-Luc HEK293T reporter cell line (IRE1α activity and XBP-1 splicing)
Settings: XBP-1-Luc cells with HRH1 OE, Tm/Tg 1 μM, 24 hours

| Compound | effect of HRH1 overexpression on the inhibitory effects on XBP-1 splicing |
| --- | --- |
| Clc1ccc2c(c1)C(N1CCNCC1)=Nc1ccccc1O2 [amoxapine] | reversed |
| CNCCCC12CCC(c3ccccc31)c1ccccc12 [maprotiline] | reversed |
